From patent US4622337A, “2,2-dimethyl-3-(2-halovinyl)cyclopropane carboxlic acid ester pesticides” (priority 1972, dated 1986)

Experiments:
[1] = system: houseflies (Musca domestica); assay: Relative toxicity to houseflies, topical drop on thorax; assay type: in vivo; conditions: 5-benzyl-3-furylmethyl (1R)-trans-chrysanthemate = 1000, inverse ratio of LD50, female flies
Procedure: (§1) The toxicity of these new esters was tested by the procedure described in detail in our above mentioned application and the following results were obtained:
(§2) The insecticidal acitivity of the esters of the invention was assessed against houseflies and mustard beetles using the following techniques:
(§3) Female flies were treated on the thorax with a one microliter drop of insecticide dissolved in acetone. Two replicates of 15 flies were used at each dose rate and 6 dose rates were used per compound under test. After treatment, the flies were maintained at a temperature of 20° C.±1° and kill was assessed 24 and 48 hours after treatment. LD50 values were calculated in micrograms of insecticide per fly and relative toxicities were calculated from the inverse ratios of the LD50 values. (see Sawicki et al, Bulletin of the World Health Organization, 35,893, (1966) and Sawicki et al, Entomologia and Exp. Appl. 10, 253, (1967)).
(§4) Relative toxicities were calculated by comparison with 5-benzyl-3-furylmethyl(1R)-trans-chrysanthemate which is one of the most toxic chrysanthemate esters known to houseflies and mustard beetles, its toxicity being about 24 times that of allethrin to houseflies and 65 times that of allethrin to mustard beetles.

[2] = system: mustard beetles (Phaedon cochleariae Fab); assay: Relative toxicity to mustard beetles, topical micro drop; assay type: in vivo; conditions: 5-benzyl-3-furylmethyl (1R)-trans-chrysanthemate = 1000, inverse ratio of LD50, 48 hours
Procedure: as §1, §2
Acetone solutions of the test compound were applied ventrally to adult mustard beetles using a micro drop applicator. The treated insects were maintained for 48 hours after which time kill is assessed. Two replicates of 40 to 50 mustard beetles were used at each dose level and 3 to 4 dose levels were used for each compound. Again, LD50 values were calculated and relative toxicities were calculated for the inverse ratios of LD50 (see Elliott et al, J. Sci. Food Agric. 20, 561, (1969)).
as §4

[3] = system: female flies (houseflies); assay: Synergisability with sesamex, 2 μg per fly pretreatment; assay type: in vivo, Musca domestica; conditions: for LD 50 active compound + synergist: pretreated with 2 μg. per fly sesamex; for LD 50 active compound only: untreated flies
Procedure: as §3
The following results were obtained

[4] = listed as 5-benzyl-3-furylmethyl (1R)--trans-chrysanthemate

SMILES | Relative Toxicity, Houseflies [1] | Relative Toxicity, Houseflies [1, 4] | Relative Toxicity, Mustard Beetles [2] | Relative Toxicity, Mustard Beetles [2, 4] | LD 50 active compound + synergist [3] [μg. per female fly] | LD 50 active compound only [3] [μg. per female fly]
CC(C)=C[C@@H]1[C@@H](C(=O)OCc2coc(Cc3ccccc3)c2)C1(C)C [Bioresmethrin, 5-benzyl-3-furylmethyl (1R)--trans-chrysanthemate, reference compound] | 1,000 | 1000 | 1,000 | 1000 | 0.00057 | 0.0054
CC(C)=CC1C(C(=O)OCc2coc(Cc3ccccc3)c2)C1(C)C (racemic) [5-benzyl-3-furyl methyl (1RS)--cis-trans-chrysanthemate, reference compound] | – | – | – | – | 0.00079 | 0.010
